{
  "source": "paper PMC2374418",
  "about": "“A prolonged methoxymorpholino doxorubicin (PNU-152243 or MMRDX) infusion schedule in patients with solid tumours: a phase 1 and pharmacokinetic study” (British Journal of Cancer, 2000)",
  "assay": "Pharmacokinetics in plasma and urine, first cycle, non-compartmental analysis",
  "description": "Nowadays, anthracyclines play an important role in chemothera- peutic treatment of a wide variety of tumour types. The clinical use of anthracyclines is limited by their toxicity profile, especially irreversible, cumulative dose-related cardiotoxicity, and by intrinsic or acquired resistance of tumours cells. Mechanisms of this resistance consist of several pathways, such as overexpression of drug efflux pumps (i.e. P-glycoprotein), decrease in topoiso- merase II enzyme levels, and increase in cellular detoxifying capacity (Kaye and Merry, 1985; Deffie et al, 1989; de Jong et al, 1990; Ford and Hait, 1990; Roninson, 1997). Morpholinyl anthracyclines, such as methoxymorpholino doxorubicin (MMRDX or PNU-152243), were synthesized in search for new anthracyclines with at least partially novel modes of action, including activity on multidrug-resistant (MDR) tumours. MMRDX is a novel doxorubicin derivative in which the nitrogen atom of the daunosamine is enclosed in a methoxymor- pholino ring (Figure 1). […] The working mechanism of morpholinyl anthracyclines appears to be different from other anthracyclines. Morpholinyl anthracyclines inhibit ribosomal gene transcription as well as topoisomerase I-mediated DNA-cleavage (Wassermann et al, 1988, 1990). […] In addition, we assessed pharmacokinetics of prolonged MMRDX-infusion. […]",
  "data": [
    {"substance": "13-dihydro-3-deamino-3-(2(S)-meth- oxy-4-morpholinyl) doxorubicin [13-dihydro metabolite]", "values": [
      {"measurement": "Renal excretion", "setting": "3 h i.v. infusion", "value": "negligible"},
      {"measurement": "Urine excretion of the 13-dihydro metabolite", "setting": "after MMRDX 3 h infusion", "value": "up to 2.3 % of the administered dose"}
    ]}
  ]
}
